{"source": "patent US12076411B2", "about": "“Anti-HER2 antibody-maytansine conjugates and methods of use thereof” (priority 2014, dated 2024)", "key": {"NCI-N87 tumors": {"system": "NCI-N87 tumors", "test": "Multidose efficacy study, NCI-N87 tumors in SCID mice (Example 2)", "type": "in vivo", "settings": "5 mg/kg once a week for four weeks", "experimental": "Two linkers were used for a multidose efficacy study. […] The multidose study used NCI-N87 tumors in SCID mice. Animals were dosed (5 mg/kg) once a week for four weeks."}, "NCI-N87 xenograft": {"system": "NCI-N87 xenograft", "test": "NCI-N87 xenograft in SCID mice, single dose (Example 2)", "type": "in vivo, C.B-17 SCID mice"}, "NCI-N87 xenografts": {"system": "NCI-N87 xenografts", "test": "NCI-N87 xenograft in SCID mice, single dose (Example 1)", "settings": "for Log10 cell kill: single 5 mg/kg ADC dose"}}}
{"substance": "Linker 101: C-terminally aldehyde-tagged αHER2 antibody conjugated to maytansine drug-linker 101 (HIPS, Glu, PEG2)", "values": [{"measurement": "activity against the smaller tumors (in words)", "setting": "NCI-N87 tumors; dosing begun at 180 mm^3", "result": "highly active"}, {"measurement": "treated/control tumor volumes at day 42", "setting": "NCI-N87 tumors; stated after the larger (400 mm^3) tumor arm", "result": 0.39}, {"measurement": "Log10 cell kill", "setting": "NCI-N87 xenograft; single 5 mg/kg ADC dose", "result": 1.24}, {"measurement": "survival (in words)", "setting": "NCI-N87 xenograft; single 5 mg/kg dose, euthanized at 800 mm^3 or day 112", "result": "significant survival advantage"}]}
{"substance": "Trastuzumab [reference compound]", "values": [{"measurement": "tumor growth (in words)", "setting": "NCI-N87 xenografts; single 5 mg/kg dose", "result": "tumors continued to grow"}]}
{"substance": "αHER2 CH1 ADC: Trastuzumab with aldehyde tag in the CH1 domain (Tag C) conjugated to HIPS-Glu-PEG2-maytansine", "values": [{"measurement": "Log10 cell kill", "setting": "NCI-N87 xenografts", "result": 0.83}]}
{"substance": "αHER2 CT ADC: Trastuzumab with aldehyde tag at the heavy chain C-terminus (CT, Tag G) conjugated to HIPS-Glu-PEG2-maytansine", "values": [{"measurement": "Log10 cell kill", "setting": "NCI-N87 xenografts", "result": 1.24}, {"measurement": "survival (in words)", "setting": "NCI-N87 xenografts; single 5 mg/kg dose, euthanized when tumors reached 800 mm^3", "result": "significant survival advantage"}]}
{"substance": "αHER2 LC ADC: Trastuzumab with aldehyde tag in the light chain (LC) conjugated to HIPS-Glu-PEG2-maytansine", "values": [{"measurement": "Log10 cell kill", "setting": "NCI-N87 xenografts", "result": 1.08}]}
{"substance": "αHER2-DM1 ADC: ADC made by conjugating trastuzumab through conventional lysine chemistry to SMCC-DM, comparator (DAR 3.4) [reference compound]", "values": [{"measurement": "Log10 cell kill", "setting": "NCI-N87 xenografts", "result": 1.03}]}
